Experiments:
[1] = test system: BAEC
[2] = test system: 3T3 cells
[3] = test system: EA.hy926 cells; conditions: EA.hy926, 48 h
[4] = read-out: IC50 (proliferation / cytotoxicity), molar equivalent, 48 h, conversion of 500 μg/ml

In the case of “tetrameric cyclic compound of 4,5-dihydroxynaphthalene-2, 7, disulfonic acid linked by methylene bridges [ST104P]”, the “IC50 (proliferation / cytotoxicity)” value ([1]; 48 h, crystal violet) is reported as over 500 µg/mL, the IC50 [1, 4] is reported as over 350 µM and the “IC50 (proliferation / cytotoxicity)” value ([2]; 48 h, crystal violet) is reported as over 500 µg/mL. The IC50 [2, 4] was over 350 µM, the “IC50 (proliferation / cytotoxicity)” value ([3]; crystal violet) was over 500 µg/mL and the IC50 ([3]; read-out: IC50 (proliferation / cytotoxicity), molar equivalent, conversion of 500 μg/ml) was over 350 µM.
